The nature of the assay: Relative biological activity i.e., the ratio of EC50 of compound to EC50 of miniANP(Mini atrial natriuretic peptide) was evaluated. The conditions noted are these: Cardiac atrium.
On to `CC[C@H](C)[C@H]1NC(=O)[C@H](CCCN=C(N)N)NC(=O)[C@@H](CC(=O)O)NC(=O)[C@@H]2CCCN2C(=O)[C@@H](CCCN=C(N)N)NC(=O)CNC(=O)CNC(=O)[C@@H](Cc2ccccc2)NC(=O)[C@H](Cc2c[nH]cn2)NC(=O)[C@@H](NC(=O)[C@@H](N)CCSC)CSSC[C@@H](C(=O)N[C@@H](Cc2ccc(O)cc2)C(=O)N[C@@H](CCCN=C(N)N)C(N)=O)NC(=O)[C@H](CO)NC1=O`, for which the Ratio turned out to be 96.8.
Turning to `CC[C@H](C)[C@@H]1NC(=O)[C@@H](CCCN=C(N)N)NC(=O)[C@H](CC(=O)O)NC(=O)[C@@H](CCSC)NC(=O)[C@H](CCCN=C(N)N)NC(=O)CNC(=O)[C@@H]2CCCN2C(=O)[C@@H](Cc2ccccc2)NC(=O)[C@H](Cc2c[nH]cn2)NC(=O)[C@@H](NC(=O)[C@@H](N)CCSC)CSSC[C@H](C(=O)N[C@@H](Cc2ccc(O)cc2)C(=O)N[C@@H](CCCN=C(N)N)C(N)=O)NC(=O)[C@@H](CO)NC1=O`, the Ratio turned out to be 159.
Regarding `CC[C@H](C)[C@H]1NC(=O)[C@H](CCCN=C(N)N)NC(=O)[C@@H](CC(=O)O)NC(=O)[C@H](CCSC)NC(=O)[C@@H](CCCN=C(N)N)NC(=O)CCCNC(=O)[C@@H](Cc2ccccc2)NC(=O)[C@H](Cc2c[nH]cn2)NC(=O)[C@@H](NC(=O)[C@@H](N)CCSC)CSSC[C@@H](C(=O)N[C@@H](Cc2ccc(O)cc2)C(=O)N[C@@H](CCN=C(N)N)C(N)=O)NC(=O)[C@H](CO)NC1=O`, the Ratio amounted to 12.2.
Next, `CC[C@H](C)[C@H]1NC(=O)[C@H](CCCN=C(N)N)NC(=O)[C@@H](CC(=O)O)NC(=O)[C@H](CCSC)NC(=O)[C@@H](CCCN=C(N)N)NC(=O)CCNC(=O)[C@@H](Cc2ccccc2)NC(=O)[C@H](Cc2c[nH]cn2)NC(=O)[C@@H](NC(=O)[C@@H](N)CCSC)CSSC[C@@H](C(=O)N[C@@H](Cc2ccc(O)cc2)C(=O)N[C@@H](CCCN=C(N)N)C(N)=O)NC(=O)[C@H](CO)NC1=O`: 260.
For `CC[C@H](C)[C@@H]1NC(=O)[C@@H](CCCN=C(N)N)NC(=O)[C@H](CC(=O)O)NC(=O)[C@@H](C)NC(=O)[C@H](CCCN=C(N)N)NC(=O)CNC(=O)CNC(=O)[C@@H](Cc2ccccc2)NC(=O)[C@H](Cc2c[nH]cn2)NC(=O)[C@@H](NC(=O)[C@@H](N)CCSC)CSSC[C@H](C(=O)N[C@@H](Cc2ccc(O)cc2)C(=O)N[C@@H](CCCN=C(N)N)C(N)=O)NC(=O)[C@@H](CO)NC1=O`, the Ratio turned out to be 292.
In the case of `CC[C@H](C)[C@@H]1NC(=O)[C@@H](CCCN=C(N)N)NC(=O)[C@H](CC(=O)O)NC(=O)[C@@H](CCSC)NC(=O)[C@@H]2CCCN2C(=O)CNC(=O)CNC(=O)[C@@H](Cc2ccccc2)NC(=O)[C@H](Cc2c[nH]cn2)NC(=O)[C@@H](NC(=O)[C@@H](N)CCSC)CSSC[C@H](C(=O)N[C@@H](Cc2ccc(O)cc2)C(=O)N[C@@H](CCCN=C(N)N)C(N)=O)NC(=O)[C@@H](CO)NC1=O`, the Ratio was determined as 7.3.
Next, `CC[C@H](C)[C@@H]1NC(=O)[C@@H](CCCN=C(N)N)NC(=O)[C@H](CC(=O)O)NC(=O)[C@@H](CCSC)NC(=O)[C@H](CCCN=C(N)N)NC(=O)[C@H]2CCCN2C(=O)CNC(=O)[C@@H](Cc2ccccc2)NC(=O)[C@H](Cc2c[nH]cn2)NC(=O)[C@@H](NC(=O)[C@@H](N)CCSC)CSSC[C@H](C(=O)N[C@@H](Cc2ccc(O)cc2)C(=O)N[C@@H](CCCN=C(N)N)C(N)=O)NC(=O)[C@@H](CO)NC1=O`: 68.7; `CC[C@H](C)[C@@H]1NC(=O)[C@@H](CCCN=C(N)N)NC(=O)[C@H](CC(=O)O)NC(=O)[C@@H](CCSC)NC(=O)[C@H](CCCN=C(N)N)NC(=O)CNC(=O)[C@H](Cc2ccccc2)NC(=O)[C@@H](Cc2c[nH]cn2)NC(=O)[C@@H](NC(=O)[C@@H](N)CCSC)CSSC[C@H](C(=O)N[C@@H](Cc2ccc(O)cc2)C(=O)N[C@@H](CCCN=C(N)N)C(N)=O)NC(=O)[C@@H](CO)NC1=O`: 316.
The figure for `CC[C@H](C)[C@@H]1NC(=O)[C@@H](CCCN=C(N)N)NC(=O)[C@@H]2CCCN2C(=O)[C@@H](CCSC)NC(=O)[C@H](CCCN=C(N)N)NC(=O)CNC(=O)CNC(=O)[C@@H](Cc2ccccc2)NC(=O)[C@H](Cc2c[nH]cn2)NC(=O)[C@@H](NC(=O)[C@@H](N)CCSC)CSSC[C@H](C(=O)N[C@@H](Cc2ccc(O)cc2)C(=O)N[C@@H](CCCN=C(N)N)C(N)=O)NC(=O)[C@@H](CO)NC1=O` is over 10000.

These data come from ChEMBL document CHEMBL1135296, “Structure-activity relationships for mini atrial natriuretic peptide by proline-scanning mutagenesis and shortening of peptide backbone” (Bioorg Med Chem Lett, 2002).
